Assay outcomes: PubChem BioAssay, National Center for Advancing Translational Sciences (NCATS)
Most compounds without a hit are left out; they make up all but 16% or so of the library.
miR-21 FLuc: raises the signal of a miR-21 reporter | HeLa miR-21 FLuc reporter, luciferase, 48 h | 340,000 tested, under 10 active | Potency, µM (titrated, usually from 38.3 µM), inactives show at the highest dose reporter change, positive = more light; active = well fitted rising curve with a large enough effect; inconclusive = small, poorly fitted or top-dose-only effect; inactive = no such curve, though single readings can be large or run the other way;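 further: % of control where 0% means no effect; miR-21 action dims this reporter so a rising signal means less miR-21 action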
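Compounds were titrated across several concentrations (up to approximately 40 uM) and incubated 48 hours with HeLa miR-21-FLuc reporter cells (miR-21 target sequence downstream of FLuc, endogenous miR-21). Readout was firefly luciferase luminescence after lytic detection reagent.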
TDP1 block: inhibitors of human tyrosyl-DNA phosphodiesterase TDP1 | recombinant TDP1, AlphaScreen DNA substrate cleavage | Potency, µM (series often up to 130 µM), for inactives: at the highest dose activity change, negative = inhibition, actives largely listed as inhibitors | actives 0.28% (n = 350,000) | AID 485290; further: potency means the concentration at half of the fitted maximal effect; on the % scale 0 is the no-effect control and ±100 the full control effect; nearly all actives have a fitted effect of over 40% in size
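Recombinant E. coli-expressed Tdp1 (1 nM) preincubated with compound 15 min at RT, then 5'-biotin/3'-phosphotyrosine-FITC DNA substrate (15 nM) added for 5 min. AlphaScreen beads (10 ug/ml) added, 10 min RT; tyrosine-FITC cleavage read as signal loss.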
uPA generation: inhibitors of cell surface uPA generation; cell surface uPA generation assay, qHTS; Potency, µM (titrated, usually from 38.3 µM), for the others: top-dose activity change, negative = inhibition, hits mostly inhibitors; actives 0.31% (n = 330,000); AID 540303; active means well fitted inhibition curve with a large enough effect; inconclusive means small, poorly fitted or top-dose-only effect; inactive means no such curve, though single readings can be large or run the other way; tested in mouse RAW 264.7 cells; further: potency means the concentration at half of the fitted maximal effect; on the % scale 0 is the no-effect control and ±100 the full control effect; nearly all actives have a fitted effect of over 55% in size
DT40 TDP1 CPT: DT40-hTDP1 cell growth loss with CPT; Potency, µM (series often up to 46.2 µM), for inactives: at the highest dose activity change, negative = growth inhibition, most hits filed as inhibitors; actives 12% (n = 420,000); chicken DT40 Tdp1-/-;hTDP1 cells + 20 nM CPT, ATP luminescence, 48 h; further: potency means the concentration at half of the fitted maximal effect; on the % scale 0 is the no-effect control and ±100 the full control effect; nearly all actives have a fitted effect of over 55% in size
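Chicken DT40 Tdp1-/- cells stably complemented with human TDP1 were seeded at 400 cells/well in medium containing 20 nM camptothecin, exposed to pin-transferred compounds, and grown at 37 °C for at least 48 hr. Viability was read as ATP luminescence.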
TDP1 cell noCPT: qHTS for Inhibitors of human tyrosyl-DNA phosphodiesterase 1 (TDP1): qHTS in cells in absence of CPT; DT40 Tdp1-/- hTDP1 cells, no CPT, ATP luminescence, 48 h; Potency, µM (top dose mostly 46.2 µM), without a hit: at the top dose activity change, negative = growth inhibition, usual class: inhibitors; actives 15% (n = 420,000); further: potency means the concentration at half of the fitted maximal effect; on the % scale 0 is the no-effect control and ±100 the full control effect; nearly all actives have a fitted effect of over 55% in size
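Compound effects on proliferation are scored in DT40 Tdp1-/-;hTDP1 cells in the absence of CPT. ATP levels (CellTiter-Glo luminescence) are recorded after a ≥48 hr, 37 °C incubation.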
The depositor's hits bear a star; ? = inconclusive; / = not tested or not shown. Unless noted, the call rests on the fitted dose curve; in most records, active means well fitted curve in the direction sought with a large enough effect; inconclusive means small, poorly fitted or top-dose-only effect, or another doubt; inactive means no such curve, though single readings can be large; an effect the other way counts as inactive or inconclusive.

#1 COc1cc(/C=C2/NC(=O)N(Cc3ccccc3F)C2=O)cc(OC)c1OC
#2 Cc1ccccc1Cn1nc(C)c(NC(=O)c2ccccc2)c1C
#3 O=C(CCC(=O)N1CCOCC1)Nc1nnc(C2CCCCC2)s1
#4 COc1ccc(CCNC(=O)c2cc3c(-c4ccccc4F)nn(C)c3s2)c(OC)c1
#5 CCCCN(CC)CCNC(=O)c1cc2c(=O)[nH]c3ccc(C)cc3c2s1
#6 CCCCN(CC)CCNC(=O)c1cc2c(-c3ccccc3F)nn(C)c2s1

entry no.	1	2	3	4	5	6
miR-21 FLuc	13%	2%	-14%	20%	4%	3%
TDP1 block	5%	3%	-3%	4%	/	/
uPA generation	4%	3%	/	/	-2%	?
DT40 TDP1 CPT	?	1%	-20%	6.5µM*	?	16µM*
TDP1 cell noCPT	16µM*	-25%	-8%	5.8µM*	?	?

#7 Cc1ccc(CCNC(=O)c2cc3c(-c4ccccc4F)nn(C)c3s2)cc1
#8 CCCN(CCC)CCCNC(=O)c1cc2c(-c3ccc(Cl)cc3)nn(C)c2s1
#9 CCN(CC)CCCNC(=O)c1cc2c(-c3ccc(Cl)cc3)nn(C)c2s1
#10 CN1CCN(CCCNC(=O)c2cc3c(-c4ccc(Cl)cc4)nn(C)c3s2)CC1
#11 COc1ccc(/C(O)=C2/C(=O)C(=O)N(CCN(C)C)C2c2ccc(F)cc2)cc1Cl (stereo not given)
#12 CC(=O)NC(=S)Nc1ccc(N2CCOCC2)c(S(=O)(=O)Nc2cc(Cl)ccc2Cl)c1

entry no.	7	8	9	10	11	12
miR-21 FLuc	8%	?	?	24%	-5%	-7%
TDP1 block	4%	5%	-3%	1%	-2%	5%
uPA generation	/	/	?	-24%	1%	-10%
DT40 TDP1 CPT	-25%	13µM*	7.3µM*	6%	-4%	-2%
TDP1 cell noCPT	?	8.2µM*	5.8µM*	?	-5%	0%

#13 CCN(CCCNC(=O)c1cc2c(-c3cccc(OC)c3)nn(C)c2s1)Cc1ccccc1
#14 CC1CCc2onc(C(=O)N3CCN(c4cccc(C(F)(F)F)c4)CC3)c2C1 (stereo not given)
#15 O=C(CCN1C(=O)/C(=C/c2ccccc2)SC1=S)NNC(=O)c1cccnc1
#16 Cc1ccc(/C=C2\SC(=S)N(CCC(=O)NNC(=O)c3cccnc3)C2=O)cc1
#17 O=C(CCN1C(=O)/C(=C/c2ccc(F)cc2)SC1=S)NNC(=O)c1cccnc1
#18 O=C(O)/C=C/C(=O)Nc1c(F)cccc1F

entry no.	13	14	15	16	17	18
miR-21 FLuc	3%	30%	-6%	-3%	-6%	-1%
TDP1 block	/	-4%	0%	2%	-2%	6%
uPA generation	-7%	/	0%	0%	-3%	-1%
DT40 TDP1 CPT	9.2µM*	?	-29%	16µM*	?	8%
TDP1 cell noCPT	?	?	?	9.2µM*	9.2µM*	1%

From compound 12 to 15, copied from above:
#12 CC(=O)NC(=S)Nc1ccc(N2CCOCC2)c(S(=O)(=O)Nc2cc(Cl)ccc2Cl)c1
#13 CCN(CCCNC(=O)c1cc2c(-c3cccc(OC)c3)nn(C)c2s1)Cc1ccccc1
#14 CC1CCc2onc(C(=O)N3CCN(c4cccc(C(F)(F)F)c4)CC3)c2C1 (stereo not given)
#15 O=C(CCN1C(=O)/C(=C/c2ccccc2)SC1=S)NNC(=O)c1cccnc1

entry no.	12	13	14	15
miR-21 FLuc	-7%	3%	30%	-6%
TDP1 block	5%	/	-4%	0%
uPA generation	-10%	-7%	/	0%
DT40 TDP1 CPT	-2%	9.2µM*	?	-29%
TDP1 cell noCPT	0%	?	?	?

The results go on.
#19 O=[N+]([O-])c1ccc(Sc2ccc(F)cc2)nc1
#20 O=[N+]([O-])c1cnc(Sc2ccncn2)c([N+](=O)[O-])c1
#21 Cc1nn(Cc2ccc(Cl)cc2)c(C)c1NC(=O)c1cc(-c2ccco2)on1
#22 Cc1cc(NC(=O)c2cc(-c3ccc(F)cc3)on2)nn1Cc1ccc(Cl)cc1
#23 Cc1ccc(Cn2nc(C)c(NC(=O)c3cc(-c4ccco4)on3)c2C)cc1
#24 Cc1cc(NC(=O)c2cc(-c3ccco3)on2)nn1Cc1ccc(Cl)cc1

entry no.	19	20	21	22	23	24
miR-21 FLuc	/	/	21%	8%	14%	12%
TDP1 block	/	/	6%	-5%	-1%	9%
uPA generation	-16%	/	-20%	/	/	-15%
DT40 TDP1 CPT	-28%	1.2µM*	13µM*	?	?	21µM*
TDP1 cell noCPT	-7%	1.2µM*	23µM*	-20%	?	26µM*

#25 COc1ccccc1Cc1c(-c2ccc(C#N)cc2)nc2c(Cl)cc(C(F)(F)F)cn12
#26 CC(C)(C)Cc1c(-c2ccc(C#N)cc2)nc2c(Cl)cc(C(F)(F)F)cn12
#27 FC(F)(F)c1cc(Cl)c2nc(-c3ccccc3)c(Cc3ccccc3)n2c1
#28 Cc1ccc(Sc2c([N+](=O)[O-])ncn2C)cc1
#29 CCCC1CCc2c(sc(NC(=O)OCC)c2C#N)C1 (stereo not given)
#30 COc1ccc(N2CC(O)=C(c3nc4ccccc4s3)C2=N)cc1

entry no.	25	26	27	28	29	30
miR-21 FLuc	/	/	/	15%	1%	-19%
TDP1 block	/	/	/	2%	6%	2%
uPA generation	/	/	/	-11%	-8%	1%
DT40 TDP1 CPT	23µM*	18µM*	-21%	21µM*	15µM*	-27%
TDP1 cell noCPT	15µM*	?	3%	?	23µM*	-15%

#31 COc1cccc(N2CC(O)=C(c3nc4ccccc4s3)C2=N)c1
#32 CCOC(=O)c1c(C)c(C(=O)Nc2cc(F)ccc2F)c(C)n1C
#33 Cc1ccccc1C(=O)Nc1ccccc1-c1nc(-c2ccccc2)no1
#34 CN(C)C(=O)NC(NC(=S)Nc1ccccc1)C(Cl)(Cl)Cl (stereo not given)
#35 CN(C)C(=O)NC(Nc1ccc(Cl)cc1Cl)C(Cl)(Cl)Cl (stereo not given)
#36 CCCn1c2ccccc2c2cnn(CC(=O)N(Cc3ccccc3)C(C)C)c(=O)c21

entry no.	31	32	33	34	35	36
miR-21 FLuc	-17%	0%	0%	-15%	6%	19%
TDP1 block	5%	3%	6%	-6%	-1%	1%
uPA generation	?	-9%	/	1%	-21%	/
DT40 TDP1 CPT	1.6µM*	18µM*	-1%	?	?	23µM*
TDP1 cell noCPT	1.5µM*	10µM*	-6%	-29%	18µM*	18µM*

#37 CCCn1c2ccccc2c2cnn(CC(=O)N(C)c3ccc(F)cc3)c(=O)c21
#38 CCCCN(CC)C(=O)Cn1ncc2c3ccccc3n(CCC)c2c1=O
#39 COc1cccc(CSc2nc3ccncc3[nH]2)c1
#40 Clc1ccccc1CSc1nc2ccncc2[nH]1
#41 COc1cccc(CNC(=O)CSc2nc3ccc(C)cc3[nH]2)c1
#42 COc1cccc(N2CCN(C(=O)c3ccc(CSc4nc5ccncc5[nH]4)cc3)CC2)c1

entry no.	37	38	39	40	41	42
miR-21 FLuc	-5%	0%	-7%	-39%	-7%	14%
TDP1 block	2%	2%	/	6%	/	3%
uPA generation	/	3%	?	4µM*	3%	-20%
DT40 TDP1 CPT	18µM*	?	?	?	?	18µM*
TDP1 cell noCPT	18µM*	23µM*	18µM*	23µM*	-16%	18µM*

#43 NC(=S)NC(c1ccccc1)c1ccncc1 (stereo not given)
#44 Cc1ccc2oc(C(=O)N(Cc3ccc(N(C)C)cc3)CC3CCCO3)c(C)c2c1 (stereo not given)
#45 Cc1cc(C)c(OCC(=O)N(Cc2ccc(N(C)C)cc2)CC2CCCO2)c(C)c1 (stereo not given)
#46 Cc1ccc(OCC(=O)N(Cc2ccc(N(C)C)cc2)CC2CCCO2)cc1C (stereo not given)
#47 Cc1ccccc1OCC(=O)N(Cc1ccc(N(C)C)cc1)CC1CCCO1 (stereo not given)
#48 Cc1c(C(=O)N(Cc2ccncc2)CC2CCCO2)oc2c(F)cccc12 (stereo not given)

entry no.	43	44	45	46	47	48
miR-21 FLuc	/	-9%	22%	11%	?	-4%
TDP1 block	/	14%	9%	9%	9%	1%
uPA generation	0%	1%	/	/	/	7%
DT40 TDP1 CPT	-1%	?	16µM*	15µM*	?	-12%
TDP1 cell noCPT	9%	18µM*	10µM*	15µM*	21µM*	-26%
